Source: ChEMBL document CHEMBL5316288, “Synthetic Strategies for Improving Solubility: Optimization of Novel Pyrazolo[1,5-a]pyrimidine CFTR Activator That Ameliorates Dry Eye Disease” (J Med Chem, 2023)
Calls of active or inactive are those of the source. No cut-off for these calls is given here.

What was measured:
[1] = molecular target: T1, Anoctamin-1 (Homo sapiens) (UniProt Q5XXA6); experiment: Activation of human ANO1 expressed in rat FRT cells assessed as increase in calcium activated apical membrane chloride current at 30 uM incubated for 20 mins in presence of ATP by patch-clamp assay; type: cell-based
T1 sequence (whole entry): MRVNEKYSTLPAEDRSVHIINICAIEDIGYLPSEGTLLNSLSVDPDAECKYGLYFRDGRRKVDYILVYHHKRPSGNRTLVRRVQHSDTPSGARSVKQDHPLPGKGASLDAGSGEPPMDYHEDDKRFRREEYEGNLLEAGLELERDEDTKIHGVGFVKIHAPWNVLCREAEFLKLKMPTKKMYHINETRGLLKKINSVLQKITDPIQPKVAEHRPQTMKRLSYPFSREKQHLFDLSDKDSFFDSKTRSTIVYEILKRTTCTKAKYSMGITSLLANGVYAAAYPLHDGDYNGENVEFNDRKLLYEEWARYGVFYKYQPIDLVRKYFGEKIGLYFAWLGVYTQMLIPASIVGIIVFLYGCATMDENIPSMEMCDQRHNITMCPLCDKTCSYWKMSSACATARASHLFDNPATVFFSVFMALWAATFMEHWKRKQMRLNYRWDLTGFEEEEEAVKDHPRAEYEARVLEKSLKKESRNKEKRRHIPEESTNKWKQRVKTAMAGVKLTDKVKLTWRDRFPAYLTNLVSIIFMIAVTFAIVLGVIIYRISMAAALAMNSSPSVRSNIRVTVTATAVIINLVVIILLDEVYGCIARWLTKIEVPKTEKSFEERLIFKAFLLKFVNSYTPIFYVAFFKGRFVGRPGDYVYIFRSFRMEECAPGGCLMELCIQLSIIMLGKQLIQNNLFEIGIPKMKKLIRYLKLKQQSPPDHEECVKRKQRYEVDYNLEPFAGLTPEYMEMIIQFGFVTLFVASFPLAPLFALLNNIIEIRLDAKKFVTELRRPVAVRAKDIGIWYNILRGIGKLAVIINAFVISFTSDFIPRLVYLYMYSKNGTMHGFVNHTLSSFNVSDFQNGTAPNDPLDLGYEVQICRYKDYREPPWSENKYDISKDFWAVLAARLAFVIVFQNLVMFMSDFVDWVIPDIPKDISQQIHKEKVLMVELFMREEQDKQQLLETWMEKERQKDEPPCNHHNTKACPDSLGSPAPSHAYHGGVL

[2] = molecular target: T1, Anoctamin-1 (Homo sapiens); experiment: Activation of human ANO1 expressed in rat FRT cells assessed as increase in calcium activated apical membrane chloride current at 30 uM incubated for 20 mins in presence of ATP and Ani9 by patch-clamp assay; type: cell-based

Activity [1]: inactive | Activity [2]: inactive
SMILES: COc1ccc(-c2ccnc3cc(C(=O)N4CCN(C(=O)c5ccccc5)[C@@H](C)C4)nn23)cc1OC
